Here are results for one compound from PubChem BioAssay AID602217 (Sanford-Burnham Center for Chemical Genomics, 2012).

The assay relates to HL-1 cardiomyocytes, 2-deoxyglucose injury, ATPLite luminescence, 2 h. The assay is described as follows: protection of HL-1 cardiomyocytes from 2-deoxyglucose injury, dose response, cell-based, ATPLite luminescence (AID 602217).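 Also: cells kept in glucose-free DMEM during the 2-deoxyglucose injury; potency of protection where actives preserve ATP signal against 2-deoxyglucose stress.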 For orientation: ATP-based viability assays read luminescence as a measure of living cells.

In general, IC50 refers to the concentration at which inhibition is half-maximal.

Molecules are shown by their SMILES. Activity calls are given as the source filed them.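 The calls were made as follows: active = IC50 at or below a set limit; inactive = the rest.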

Turning to `NC(=O)c1ccsc1NC(=O)c1ccc([N+](=O)[O-])o1`, the IC50 was inactive: > 79 µM.
